# Results as given in publication PMC6966663 (Cancers, 2019).
# Settings: in vivo
smiles,measurement,setting,value
NC(=O)c1ccc2nc(-c3ccc(C4(N)CCC4)cc3)c(-c3ccccc3)n2n1 [BAY 1125976],Patients with TEAEs CTCAE Grade 1 or Grade 2,human,Eighteen (22.8%) patients
same,Patients with TEAEs CTCAE Grade 3 or Grade 4,human,52 (65.8%) patients
same,Patients with TEAEs leading to dose modification,human,Forty-five (57.0%) patients
same,Patients with drug-related TEAEs,human,69 (87.3%) patients
same,Cases of Grade 3 rash,,one
same,Deaths during the treatment period or within the 30 days safety follow-up,,Six
same,Patients with on-target Grade 3 hyperglycemia,,one
same,SAEs considered drug-related,,Six
